Measured values reported in ChEMBL document CHEMBL6120980, “Discovery of First Branched-Chain Ketoacid Dehydrogenase Kinase (BDK) Inhibitor Clinical Candidate PF-07328948” (J Med Chem, 2025).
Calls of active or inactive are those of the source. The rule behind the calls is not given here.

How the values were obtained:
Type in all cases: functional, organism-based
[1] = target: Branched-chain alpha-ketoacid dehydrogenase kinase (Rattus norvegicus) (UniProt Q00972); assay: In vivo inhibition of BDK in obese ZSF1 rat model assessed as increase in ejection fraction at 54 to 59 mg/kg/day administered via chow diet and measured after 7 weeks by ECG analysis; conditions: dose lower […], dose upper […]
[2] = target: Branched-chain alpha-ketoacid dehydrogenase kinase (Rattus norvegicus) (UniProt Q00972); assay: In vivo inhibition of BDK in obese ZSF1 rat model assessed as improvement in exercise capacity by measuring increase in time to fatigue at 54 to 59 mg/kg/day administered via chow diet and measured after 9 weeks; conditions: dose lower […], dose upper […]
[3] = target: Branched-chain alpha-ketoacid dehydrogenase kinase (Rattus norvegicus) (UniProt Q00972); assay: In vivo inhibition of BDK in obese ZSF1 rat model assessed as improvement in exercise capacity by measuring increase in distance run at 54 to 59 mg/kg/day administered via chow diet and measured after 9 weeks; conditions: dose lower […], dose upper […]
[4] = target: Branched-chain alpha-ketoacid dehydrogenase kinase (Mus musculus) (UniProt O55028); assay: In vivo inhibition of BDK in diet-induced obese male C57BL/6J mouse model assessed as reduction in plasma valine level administered orally as once daily dose for 10 days by mass spectrometric analysis; conditions: route po, time 10.0 day
[5] = target: Branched-chain alpha-ketoacid dehydrogenase kinase (Rattus norvegicus) (UniProt Q00972); assay: In vivo inhibition of BDK in obese ZSF1 rat model assessed as reduction in plasma ketoleucine level at 54 to 59 mg/kg/day administered via chow diet and measured after 3 weeks by mass spectrometric analysis; conditions: dose lower […], dose upper […]
[6] = target: Branched-chain alpha-ketoacid dehydrogenase kinase (Rattus norvegicus) (UniProt Q00972); assay: In vivo inhibition of BDK in obese ZSF1 rat model assessed as reduction in left atrial size at 54 to 59 mg/kg/day administered via chow diet and measured after 7 weeks by ECG analysis; conditions: dose lower […], dose upper […]
[7] = target: Branched-chain alpha-ketoacid dehydrogenase kinase (Rattus norvegicus) (UniProt Q00972); assay: In vivo inhibition of BDK in obese ZSF1 rat model assessed as reduction in plasma ketoleucine level at 17 to 19 mg/kg/day administered via chow diet and measured after 3 weeks by mass spectrometric analysis; conditions: dose lower […], dose upper […]
[8] = target: Branched-chain alpha-ketoacid dehydrogenase kinase (Rattus norvegicus) (UniProt Q00972); assay: In vivo inhibition of BDK in obese ZSF1 rat model assessed as increase in left ventricular fractional shortening at 54 to 59 mg/kg/day administered via chow diet and measured after 7 weeks by ECG analysis; conditions: dose lower […], dose upper […]

## COc1c(F)c(F)cc(-c2c(C(=O)O)sc3cc(F)ccc23)c1F
[1]
  inhibition: Active
[2]
  inhibition: Active
[3]
  inhibition: Active
[4]
  inhibition: Dose-dependent-effect
[5]
  inhibition: Active; Large Decrease In Ketoleucine Level Observed
[6]
  inhibition: Active
[7]
  inhibition: Active; Small But Significant Decrease Observed
[8]
  inhibition: Active
